Values quoted from earlier work, collected in US11826435B2, “Conduritol aziridine derivatives and uses thereof” (University of Saskatchewan, priority 2017, dated 2023).

Amino acid sequences for entries named in this document (tags omitted). Residues count along the entry.
UniProt P04062, 40-536 limits assumed: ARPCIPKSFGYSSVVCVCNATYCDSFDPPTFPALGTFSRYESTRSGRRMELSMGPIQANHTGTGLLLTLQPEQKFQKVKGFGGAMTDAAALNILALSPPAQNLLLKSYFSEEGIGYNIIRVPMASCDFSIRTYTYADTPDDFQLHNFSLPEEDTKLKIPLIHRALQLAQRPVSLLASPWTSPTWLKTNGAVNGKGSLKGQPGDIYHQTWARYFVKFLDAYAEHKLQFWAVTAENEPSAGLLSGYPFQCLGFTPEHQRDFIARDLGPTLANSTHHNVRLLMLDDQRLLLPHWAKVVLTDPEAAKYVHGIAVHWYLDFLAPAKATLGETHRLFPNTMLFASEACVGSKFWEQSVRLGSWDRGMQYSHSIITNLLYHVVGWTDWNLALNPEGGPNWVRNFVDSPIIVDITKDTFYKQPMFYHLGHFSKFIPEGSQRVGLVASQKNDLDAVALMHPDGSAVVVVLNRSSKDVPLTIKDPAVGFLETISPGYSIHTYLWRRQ

Molecular target: GCase (Homo sapiens (Human), UniProt P04062)
Details: reported data, cited from earlier work; for Ki / ki/Ki: inhibition of GCase; for ki: rate constant of inactivation of GCase

For `CCCCCCN1C2C(O)C(O)C(O)C(O)C21` (stereo not drawn), the Ki is given as 0.05 µM, the ki/Ki is given as 2.80 μM^−1/min^−1 and the ki is given as 0.140 min⁻¹.
In the case of `CCCCN1C2C(O)C(O)C(O)C(O)C21` (stereo not drawn), the Ki is given as 2.4 µM, the ki/Ki is given as 0.058 μM^−1/min^−1 and the ki is given as 0.140 min⁻¹.
